Data as given in PubChem BioAssay AID1688 (National Center for Advancing Translational Sciences (NCATS), 2009).
The entries are a selection whose mix differs from that of the whole data set. Inconclusive results are not listed. A call without a number means that no potency is given here. Active and inactive are the calls of the source. The call rests on the fitted dose curve; in most records, active means well fitted inhibition curve with a large enough effect; inconclusive means small, poorly fitted or top-dose-only effect, or effect the other way; inactive means no such curve, though single readings can be large or run the other way.

Assay: qHTS Multiplex Assay to Identify Dual Action Probes in a Cell Model of Huntington: Aggregate Formation (GFP); further: nearly all actives have a fitted effect of over 60% in size
Conditions: PC12 HttQ103-GFP aggregates, Acumen cytometry, 40 h; series mostly up to 9.22 µM
Potency means the concentration at half of the fitted maximal effect.

SMILES	Potency
CCOP(=O)(Nc1cccc2ccccc12)OCC	inactive
CCCOP(=S)(Nc1nc(N)cc(=O)[nH]1)OCCC	inactive
Nc1cccc2c([As](=O)(O)O)cccc12	inactive
Cc1cccc(OCC(=O)OC2CN3CCC2CC3)c1 (stereo not given)	inactive
O=[As](O)(c1cccc(O)c1)c1cccc(O)c1	inactive
O=[As](O)(O)c1cccnc1	inactive
COc1cc(C(=O)NCC2(N3CCOCC3)CCCCC2)cc(Cl)c1OC(C)C	inactive
O=C(OC1CN2CCC1CC2)c1ccc(Cl)cc1 (stereo not given)	inactive
O=[As](O)(c1ccccc1Br)c1ccccc1Br	inactive
CC(C)/C=N\N=C(\N)N[N+](=O)[O-]	inactive
Clc1n[nH]nc1-c1nn[nH][15n]1	inactive
CC(C)(C)C(=O)NC(Sc1ncccn1)C(Cl)(Cl)Cl (stereo not given)	inactive
CCOP(=O)(Nc1ccc(C)cn1)OCC	inactive
O=P1(Nc2ccccn2)COc2ccccc2OC1	inactive
O=[As](O)(c1cccs1)c1cccs1	inactive
Cc1ccc(OCC(=O)OC2CN3CCC2CC3)cc1 (stereo not given)	inactive
Nc1cccc([As](=O)(O)c2ccccc2)c1	inactive
O=P1(Nc2ncccn2)COc2ccccc2OC1	inactive
O=C(/C=C/c1ccccc1)OC1CN2CCC1CC2 (stereo not given)	inactive
CN(C)C1(CNC(=O)c2ccc(S(C)(=O)=O)cc2)CCCCC1	inactive
Cc1nn(-c2ccccc2)c2c1P(=O)(N1CCOCC1)N(C)C(c1ccccc1)=N2 (stereo not given)	inactive
CC1CCC(C(C)C)C(OP(=O)(Nc2ccccn2)c2ccccc2)C1 (stereo not given)	inactive

SMILES	Potency
C(Cc1nn[nH]n1)Cc1nn[nH]n1	inactive
Nc1ccc([As](=O)(O)c2ccc([N+](=O)[O-])cc2)cc1	inactive
O=C(OC1CN2CCC1CC2)c1cccc(Cl)c1 (stereo not given)	inactive
O=[N+]([O-])c1ncn(CCn2cnc([N+](=O)[O-])n2)n1	inactive
CC(=O)NC(SC(=S)N(C)C)C(Cl)(Cl)Cl (stereo not given)	inactive
O=[As](O)(c1ccccc1)c1ccc(O)cc1	inactive
O=P(Nc1nc2ccccc2s1)(c1ccccc1)c1ccccc1	inactive
C[C@H]1OP(=O)(Oc2ccccc2)[C@H](O)[C@H](O)[C@H]1N=[N+]=[N-] (stereo not given in full)	inactive
CN(C(=O)Cc1ccccc1)[C@H]1CC[C@@]2(CCCO2)C[C@@H]1N1CCCC1	inactive
O=P(Nc1ccccn1)(c1ccc(Br)cc1)c1ccc(Br)cc1	inactive
c1nnnn1CCn1cnnn1	inactive
O=P(Nc1nccs1)(c1ccccc1)c1ccccc1	inactive
CC(C)C(=O)NC(Sc1ccccc1)C(Cl)(Cl)Cl (stereo not given)	inactive
CC(=O)Nc1ccc([As](=O)(O)O)c(O)c1	inactive
CC(=O)Nc1ccc(Oc2c([N+](=O)[O-])cc([N+](=O)[O-])cc2[N+](=O)[O-])cc1	inactive
C[C@H]1OP(=O)(Oc2ccccc2)C[C@@H]2O[C@@H]21 (stereo not given in full)	inactive
C[C@@H]1C=CCP(=O)(Oc2ccccc2)O1 (stereo not given in full)	inactive
CC(C)(C)C(=O)NC(Sc1ccccc1)C(Cl)(Cl)Cl (stereo not given)	inactive
O=P1(Nc2nc3ccc(Cl)cc3s2)COc2ccccc2O1 (stereo not given)	inactive
CCOc1ccc(C2=NCC(CBr)S2)cc1 (stereo not given)	inactive
Cc1ccccc1OP(=O)(Nc1ccccn1)Oc1ccccc1C	inactive
O=c1c2cc([N+](=O)[O-])ccc2[nH]c2c([N+](=O)[O-])cc([N+](=O)[O-])cc12	inactive

SMILES	Potency
CN(C)C(=O)Oc1noc2ccccc12	inactive
COC(=O)c1cc2c(s1)N=C(c1ccccc1)N(C)P2(=O)N1CCOCC1 (stereo not given)	inactive
Cc1ccc(OP(=O)(Nc2ccccn2)Oc2ccc(C)cc2)cc1	inactive
CC(=O)NC(SC(=S)N(CC(C)C)CC(C)C)C(Cl)(Cl)Cl (stereo not given)	inactive
O=C(OC1CN2CCC1CC2)c1ccccc1 (stereo not given)	inactive
CCC(=O)N1C2C3N(C(=O)CC)C1C1N(C(=O)CC)C(C(N1C(=O)CC)N3C(=O)CC)N2C(=O)CC	inactive
O=C(NC1CCS(=O)(=O)C1)NP(=S)(Oc1ccccc1)Oc1ccccc1 (stereo not given)	inactive
CCNC(=S)/N=C(\N)N[N+](=O)[O-]	inactive
c1ccc(-c2nn[nH]n2)c(-c2nn[nH]n2)c1	inactive
CCOC(=O)NC(Sc1ccccc1)C(Cl)(Cl)Cl (stereo not given)	inactive
Cc1ccc(NP(=O)(Oc2cccc(C)c2)Oc2cccc(C)c2)nc1	inactive
CCN(N=Nc1nonc1N)c1nonc1N	inactive
Nc1cccc2ccc([As](=O)(O)O)cc12	inactive
Cc1cc(SC(NC(=O)c2ccc(F)cc2)C(Cl)(Cl)Cl)ncn1 (stereo not given)	inactive
CCOP(=O)(Nc1ccccc1)OCC	inactive
Cc1ccc(NP(=O)(Oc2ccccc2F)Oc2ccccc2F)nc1	inactive
CC(=O)Nc1ccc([As](=O)(O)O)cc1	inactive
O=C(O)c1ccccc1[As](=O)(O)O	inactive
O=P(Nc1nc2ccc(Cl)cc2s1)(c1ccccc1)c1ccccc1	inactive
Nc1cc(N)c2nonc2c1[N+](=O)[O-]	inactive
CC(C)CC(=O)NC(Sc1ccc(Cl)cc1)C(Cl)(Cl)Cl (stereo not given)	inactive
Oc1ccccc1CNc1ccccn1	inactive

SMILES	Potency
O=C(NC(Sc1ccncn1)C(Cl)(Cl)Cl)c1ccccc1 (stereo not given)	inactive
COc1ccccc1OP(=O)(Nc1ccc(C)cn1)Oc1ccccc1OC	inactive
Cc1ccc(OP(=O)(Nc2nccs2)Oc2ccc(C)cc2)cc1	inactive
Clc1ccc(Cl)c(NC2=NCC(CBr)S2)c1 (stereo not given)	inactive
NC(=O)c1cc([N+](=O)[O-])cc([N+](=O)[O-])c1N	inactive
Cc1ccc(N/C(=N/P(=O)(N2CCOCC2)N2CCOCC2)N2CCOCC2)cc1	inactive
CC(C)=N/N=C(\N)N[N+](=O)[O-]	inactive
CC1CCN(C(=O)Oc2c(Cl)cc(Cl)c3cccnc23)CC1	inactive
Nc1ccc([As](=O)(O)c2ccc(N)cc2)cc1	inactive
C[N+]1=C2C=CC=CC=C2SC12C([N+](=O)[O-])=CC([N+](=O)[O-])=C[C-]2[N+](=O)[O-] (stereo not given)	inactive
CC(=O)N1C2C3N(C(C)=O)C1C1N(C(C)=O)C(C(N1C(C)=O)N3C(C)=O)N2C(C)=O	inactive
O=[N+]([O-])c1cccc2n[nH]nc12	inactive
Cc1ccc(NP(=O)(Oc2ccccc2)Oc2ccccc2)nc1	inactive
CCc1nc2c(n1)c1c(non1O)c1c2no[n+]1[O-]	active: 11.2 µM
O=[N+]([O-])c1cccc(NC2=NCC(CBr)S2)c1 (stereo not given)	inactive
O=C(O)CNc1ccc([As](=O)(O)O)cc1	inactive
CC(C)(C)C(=O)NC(Sc1ccncn1)C(Cl)(Cl)Cl (stereo not given)	inactive
O=[N+]([O-])c1ncn(CCn2ncnc2[N+](=O)[O-])n1	inactive
O=C(Nc1cc([As](=O)(O)O)ccc1O)c1ccccc1	inactive
